AlphaSeq binding of Ab-91 heavy chain variants to a spike HR2 peptide

From the AlphaSeq antibody data of Engelhart et al. 2022 (doi:10.1038/s41597-022-01779-4), copy in the FLAb collection.

Target: peptide PDVDLGDISGINAS, taken from heptad repeat 2 (HR2) of SARS-CoV-2 spike.

Ab-91 is the parent antibody, in scFv form: VL, then the linker GGGGSGGGGSGGGGS, then VH. The light chain is unchanged in all variants.
VL: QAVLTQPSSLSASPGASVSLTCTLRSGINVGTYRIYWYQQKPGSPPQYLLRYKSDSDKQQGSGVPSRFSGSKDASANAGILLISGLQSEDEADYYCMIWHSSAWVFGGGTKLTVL
VH: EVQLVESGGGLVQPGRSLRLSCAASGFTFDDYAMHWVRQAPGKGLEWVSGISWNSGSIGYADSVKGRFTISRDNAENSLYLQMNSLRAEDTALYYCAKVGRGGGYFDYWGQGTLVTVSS

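Phage display of a naive human antibody library on the peptide gave the parent. Library AAYL51 holds single substitutions and randomly drawn double and triple substitutions in the CDRs. In AlphaSeq, yeast of one mating type display the scFv and yeast of the other type display the target. Binding brings cells together so that they mate, and sequencing counts the barcode pairs among the diploids. Each replicate has its own calibration line, from reference interactions of the BCL2 family. Mating was done three times.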

The parent's heavy chain CDRs are GFTFDDYAMH, GISWNSGSIGYADSVK, VGRGGGYFDY; each variant's own CDRs replace them letter for letter. Scale: log10 of Kd in nM, estimated from mating counts; low values are strong binders. "nd" means that the variant was in the library but no mating with the target was seen in that replicate; the authors take this as a sign of poor binding, and no number exists. In this assay the parent's reference entry averaged 1.86; its copy inside this library read 0.88. As a blank, each scFv also met three strains without target: over library AAYL51, 21% of these pairings were detected, typically at 4.54 and seldom below 3.26. The control count says in how many pairings with the empty strains this scFv gave a signal, with their mean in brackets.

CDR-H1	CDR-H2	CDR-H3	log10 Kd, replicates	empty controls
GRTFIDYAMH	GISWNSGSIGYADSVK	VGRGRGYFDY	nd nd nd	1 of 9 (3.09)
GTTFDDYAMH	GISWESPSIGYADSVK	VGRGGGYFDY	nd nd nd	2 of 9 (4.82)
GFTFDDYAMH	GISWNSGSIGYADSKK	VGRRNGYFDY	nd nd nd	0 of 9
GFTFFDYAMT	GISWNKGSIGYADSVK	VGRGGGYFDY	5.34 5.23 nd	8 of 9 (4.99)
GFTFADYAMH	GICWNSGSIGYADSVK	VGTGGGYFDY	nd 4.23 nd	2 of 9 (4.56)
GFTCDDYQMH	GISWNSGSIGYKDSVK	VGRGGGYFDY	nd nd nd	0 of 9
GFTRDDYAMH	GISWNSGSIGYADSVK	VSRGGNYFDY	nd 6.67 4.80	5 of 9 (4.89)
GFTFDDYAMH	GISWNSGSIGYADSVK	VGRGWGYFDY	nd nd nd	0 of 9
TFTFDDYAMY	GISWNSGSIGYYDSVK	VGRGGGYFDY	nd 4.97 nd	2 of 9 (4.49)
GITFDDYAMG	GISWNFGSIGYADSVK	VGRGGGYFDY	4.33 4.85 nd	4 of 9 (4.57)
GFTFDDYADW	GIFWNSGSIGYADSVK	VGRGGGYFDY	nd nd nd	0 of 9
GFTFDDYDMH	GISWNSGSIGYAVSVK	VGRGGGYFDY	nd nd nd	3 of 9 (4.77)
GFTFDDGAMH	GISWNSGSIGYADMVK	VGRGGGYFEY	nd nd nd	0 of 9
GFTFDDYAMH	GKSWNSGSDGYADSVK	VGRGGGYFDE	nd nd nd	2 of 9 (3.78)
GFTFDDYAMH	GILWNSGLIGYADSVK	VGRGGGYFDY	4.76 nd nd	3 of 9 (4.39)
GFTFDDYHMH	GWSGNSGSIGYADSVK	VGRGGGYFDY	4.50 6.78 nd	6 of 9 (4.61)
GFTFDDYAFH	GISWNSESIGYADSVK	VGRGGGYFDY	5.78 5.11 5.36	5 of 9 (5.13)
GFTFDDYAMH	CISWNSGSIGYAKSVK	VGRIGGYFDY	nd nd nd	2 of 9 (3.31)
GFTFDDYAMH	GISWASGSIGYADSVK	NGRGQGYFDY	nd 4.63 nd	1 of 9 (3.09)
GFTFDDYAMA	GISWNSGTIGYADFVK	VGRGGGYFDY	4.33 nd nd	2 of 9 (4.38)
GFTFYDYASH	GISWNSGSIGYADSVK	VLRGGGYFDY	nd 3.78 nd	1 of 9 (4.00)
GWTFDDYAMH	GISWNSFSIGYADSVK	VGRGGGYFDY	nd 2.56 nd	0 of 9
GFTFVDYAMH	GISWNSGPIGYAMSVK	VGRGGGYFDY	nd nd 3.13	1 of 9 (3.99)
GFTFDDYAKH	GISWNSGVIGYADGVK	VGRGGGYFDY	nd nd nd	0 of 9
GFTFDDYASH	GISWNSGSIGYADSVS	VGRGGGYFDY	nd nd nd	0 of 9
GFTFDDYSMH	GISWNSGSIGYADSMK	VGRGGGYFDT	0.85 0.65 -0.01	4 of 9 (4.19)
GFTFDDYAMH	GISWNSGSIGYADSWK	TGRPGGYFDY	nd nd nd	0 of 9
GFTFDDYAMH	GISWNSGSIGYFDSVI	VGRGGGYFDY	nd nd nd	3 of 9 (4.27)
GFTCDDYCMH	GISWNSGSIGYVDSVK	VGRGGGYFDY	4.37 nd nd	3 of 9 (4.83)
GFTFRDYAMH	GISWNSGSDGYADSVK	VGRGGGYFDY	3.31 3.12 2.97	7 of 9 (4.98)
GQTFDDYAMH	GISHNSGSIGYADSVK	VGRGGGYFDY	3.07 nd nd	1 of 9 (3.35)
PFTFDDYAMH	GISWNSGSIGYADSVK	VGRGGGAFDA	5.90 5.07 4.84	3 of 9 (5.47)
GFVFDDYGMR	GISWNSGSIGYADSVK	VGRGGGYFDY	nd nd nd	0 of 9
GFTFDDYAMH	GISWNSGSDGYADSVK	VYREGGYFDY	nd 6.22 nd	2 of 9 (3.97)
GFTFDDYAMH	GISWNFGSIKCADSVK	VGRGGGYFDY	nd nd nd	0 of 9
GFTFDDYAMH	GISWNSGSIGYADSVK	VGRPGGFFGY	nd nd nd	1 of 9 (3.72)
GFTFRDYAMH	GISCNSGSIGYADSVD	VGRGGGYFDY	2.67 3.01 2.64	8 of 9 (5.31)
GFTFDDYAMH	GISWNSLSIGYADCVK	VGRGGGGFDY	3.74 nd nd	0 of 9

Excerpt, the final 4 entries:

CDR-H1	CDR-H2	CDR-H3	log10 Kd, replicates	empty controls
GFTFDDYAMH	GISWNFGSIKCADSVK	VGRGGGYFDY	nd nd nd	0 of 9
GFTFDDYAMH	GISWNSGSIGYADSVK	VGRPGGFFGY	nd nd nd	1 of 9 (3.72)
GFTFRDYAMH	GISCNSGSIGYADSVD	VGRGGGYFDY	2.67 3.01 2.64	8 of 9 (5.31)
GFTFDDYAMH	GISWNSLSIGYADCVK	VGRGGGGFDY	3.74 nd nd	0 of 9